Data on one molecule can be found in publication PMC3075617 (Cell, 2011).

Where two headings read alike, the source gives them in different places.

In assay [1] the target is ^flC18-58 (18-58 with a cysteine added near the N-terminus, modified by a fluorophore) (UniProt P00698). In words: fluorescence polarisation. (Polarisation of emitted light reports the rotation of a fluorescent probe.)
Assay [2] has the same target. In words: fluorescence polarisation. The source holds these as a separate data set.

B1: DegP^S210A active-site mutant (enzyme, Escherichia coli, UniProt P0C0V0 27-474, looked up)
chain: AETSSATTAQQMPSLAPMLEKVMPSVVSINVEGSTTVNTPRMPRNFQQFFGDDSPFCQEGSPFQSSPFCQGGQGGNGGGQQQKFMALGSGVIIDADKGYVVTNNHVVDNATVIKVQLSDGRKFDAKMVGKDPRSDIALIQIQNPKNLTAIKMADSDALRVGDYTVAIGNPFGLGETVTSGIVSALGRSGLNAENYENFIQTDAAINRGNAGGALVNLNGELIGINTAILAPDGGNIGIGFAIPSNMVKNLTSQMVEYGQVKRGELGIMGTELNSELAKAMKVDAQRGAFVSQVLPNSSAAKAGIKAGDVITSLNGKPISSFAALRAQVGTMPVGSKLTLGLLRDGKQVNVNLELQQSSQNQVDSSSIFNGIEGAEMSNKGKDQGVVVNNVKTGTPAAQIGLKKGDVIIGANQQAVKNIAELRKVLDSKPSVLALNIQRGDSTIYLLMQ
As usually defined, the Kd is the constant that tells how readily two partners part at equilibrium. As for B1, the figures for the Kd in assay [1] and in assay [2] were 12 µM and 0.88 µM, respectively.
